# Reference: PubChem BioAssay AID1458 (National Center for Advancing Translational Sciences (NCATS), 2008)
# The entries are a selection whose mix differs from that of the whole data set. Results filed as inconclusive are left out. Active and inactive are the calls of the source. Calls follow the shape of the dose curve; as a rule, active = well fitted activation curve with a large enough effect; inconclusive = small, poorly fitted or top-dose-only effect; inactive = no such curve, though single readings can be large or run the other way.
# Experiment: qHTS Assay for Enhancers of SMN2 Splice Variant Expression; also: % of control where 0% means no effect; nearly all actives have a fitted effect of over 55% in size
# Settings: HEK293 SMN2-luciferase splicing reporter, luminescence, 30-36 h; at 46.1 µM (top of the series) unless noted
row,Compound,"activity change, positive = activation"
1,O=C(OC1CN2CCC1CC2)C1c2ccccc2Oc2ccccc21 (stereo not drawn),inactive: 5.3%
2,CCOC(=O)N1CCC(Nc2ccc(OC)cc2)CC1,inactive: 4.73%
3,O=C(NCC1(N2CCOCC2)CCCCC1)c1cc2ccccc2o1,inactive: -7.6%
4,COc1ccc(C(=O)NCC2(N3CCCCC3)CCCCC2)c(OC)c1OC,inactive: -12.6%
5,COc1ccc(NC2CCN(CCc3ccccc3)CC2)c(OC)c1,inactive: -8.21%
6,O=C(NCC1(N2CCOCC2)CCCCC1)c1cc(=O)[nH]c2ccccc12,inactive: 1.64%
7,CN1CCN(CCOC(=O)C(O)(c2ccccc2)c2ccccc2)CC1,inactive: -1.58%
8,COc1ccc(NC2CCN(C(=O)OC(C)(C)C)CC2)cc1,inactive: -24.8%
9,O=[N+]([O-])c1cc([N+](=O)[O-])c(NCC2CCS(=O)(=O)C2)c([N+](=O)[O-])c1 (stereo not drawn),inactive: -3.85%
10,O=C(NCC1(N2CCCCC2)CCCCC1)c1cccc([N+](=O)[O-])c1,inactive: -5.08%
11,NC1CCCCC1.NP(=O)(O)N(CCCl)CCCl,inactive: -3.02% [at 9.22 µM]
12,CCOP(=O)(Cl)Cl,inactive: -0.123%
13,CC(C)c1ccc(NC2CCN(C(=O)OC(C)(C)C)CC2)cc1,inactive: -15.9%
14,CN(C)c1cccc(C(=O)NCC2(N3CCCCC3)CCCCC2)c1,inactive: 24.7%
15,O=C(OC1CN2CCC1CC2)C1c2ccccc2C=Cc2ccccc21 (stereo not drawn),inactive: -3.53%
16,N/C(=N\O)c1c(N)no[n+]1[O-],inactive: -14.9%
17,COc1ccc(C(=O)NCC2(N3CCOCC3)CCCCC2)cc1OC,inactive: -9.92%
18,ClCCOP(OCCCl)OCCCl,inactive: -5.22%
19,c1ccc(CN2CCC(Nc3ccccc3)CC2)cc1,inactive: -14.5%
20,N#Cc1ccc(C(=O)NCC2(N3CCCCC3)CCCCC2)cc1,inactive: 1.33%
21,CN(C)c1ccc(C(=O)NCC2(N3CCCCC3)CCCCC2)cc1,inactive: 4.43%
22,CCN1CCC(Nc2cccc(F)c2)CC1,inactive: -6%
23,Fc1ccccc1NC1CCN(Cc2ccccc2)CC1,inactive: 8.17%
24,COc1cc(OC)cc(C(=O)NCC2(N3CCOCC3)CCCCC2)c1,inactive: 8.03%
25,CCC(CO)(C(=O)OC1CN2CCC1CC2)c1ccccc1 (stereo not drawn),inactive: -7.02%
26,O=C(O)C1(Nc2ccccc2)CCN(Cc2ccccc2)CC1,inactive: -16.9% [at 9.22 µM]
27,CC(C)(C)OC(=O)N1CCC(Nc2ccccc2)CC1,inactive: -7.2%
28,CCOc1ncccc1C(=O)NCC1(N2CCOCC2)CCCCC1,inactive: 18%
